The values that follow are results of earlier work, collected in publication PMC2603313, “Direct Inhibition of GSK3β by the Phosphorylated Cytoplasmic Domain of LRP6 in Wnt/β-Catenin Signaling” (PLoS ONE, 2008).

In this data set the target is caspase-3. Particulars: read-out: Ki toward caspase-3; cited from earlier work. As for the experimental part: Given this Ki value, the inhibitory effect of phosphorylated LRP6 on GSK3β is relatively low compared to other cytoplasmic protein inhibitors, such as XIAP (Ki toward caspase-3 ∼2 nM [26]), although it is a much stronger inhibitor than the phosphorylated N-terminal segment of GSK3β in trans. However, the weak inhibitory effect of the phosphorylated LRP6 on GSK3β could become important when GSK3β and ...

The term Ki denotes a dissociation constant, usually derived from enzyme kinetics or from competition with a known ligand. On to “XIAP: cytoplasmic protein inhibitor (toward caspase-3)”, for which the inhibition constant (Ki) was around 2 nM.
